Biological target: Acetylcholinesterase (Homo sapiens, UniProt P22303)
Test: Inhibition of acetylcholinesterase activity

Chains of the proteins cited; added tags and fusions are not shown. Lines headed by an entry give the natural chain unless they say otherwise; changes in a name come on top.
UniProt P22303: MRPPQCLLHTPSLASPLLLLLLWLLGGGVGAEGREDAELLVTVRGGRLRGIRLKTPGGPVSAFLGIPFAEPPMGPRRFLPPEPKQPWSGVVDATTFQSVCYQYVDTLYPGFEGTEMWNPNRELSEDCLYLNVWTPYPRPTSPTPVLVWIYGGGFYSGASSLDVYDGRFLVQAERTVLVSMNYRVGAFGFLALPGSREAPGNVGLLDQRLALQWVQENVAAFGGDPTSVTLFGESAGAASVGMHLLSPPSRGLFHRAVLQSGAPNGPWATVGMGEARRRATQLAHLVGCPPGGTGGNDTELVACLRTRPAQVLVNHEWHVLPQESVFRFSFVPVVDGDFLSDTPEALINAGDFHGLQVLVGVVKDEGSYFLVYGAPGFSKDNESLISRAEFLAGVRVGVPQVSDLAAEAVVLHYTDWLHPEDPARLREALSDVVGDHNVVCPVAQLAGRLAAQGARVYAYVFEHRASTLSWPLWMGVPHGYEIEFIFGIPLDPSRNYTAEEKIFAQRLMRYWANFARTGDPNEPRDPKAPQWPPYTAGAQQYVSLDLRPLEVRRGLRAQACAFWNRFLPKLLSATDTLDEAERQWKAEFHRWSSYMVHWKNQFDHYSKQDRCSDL

CN1CCC(CC2=Cc3ccccc3C2)CC1
IC50: 4.4 µM

Reference: ChEMBL document CHEMBL1126158, “Conformational analyses and molecular-shape comparisons of a series of indanone-benzylpiperidine inhibitors of acetylcholinesterase” (J Med Chem, 1992)
